Experimental data from US10112932B2, “Benzoxazepin oxazolidinone compounds and methods of use” (Genentech, Inc., priority 2015, dated 2018).

Chains of the proteins cited; added tags and fusions are not shown. Lines headed by an entry give the natural chain unless they say otherwise; changes in a name come on top.
UniProt O00329: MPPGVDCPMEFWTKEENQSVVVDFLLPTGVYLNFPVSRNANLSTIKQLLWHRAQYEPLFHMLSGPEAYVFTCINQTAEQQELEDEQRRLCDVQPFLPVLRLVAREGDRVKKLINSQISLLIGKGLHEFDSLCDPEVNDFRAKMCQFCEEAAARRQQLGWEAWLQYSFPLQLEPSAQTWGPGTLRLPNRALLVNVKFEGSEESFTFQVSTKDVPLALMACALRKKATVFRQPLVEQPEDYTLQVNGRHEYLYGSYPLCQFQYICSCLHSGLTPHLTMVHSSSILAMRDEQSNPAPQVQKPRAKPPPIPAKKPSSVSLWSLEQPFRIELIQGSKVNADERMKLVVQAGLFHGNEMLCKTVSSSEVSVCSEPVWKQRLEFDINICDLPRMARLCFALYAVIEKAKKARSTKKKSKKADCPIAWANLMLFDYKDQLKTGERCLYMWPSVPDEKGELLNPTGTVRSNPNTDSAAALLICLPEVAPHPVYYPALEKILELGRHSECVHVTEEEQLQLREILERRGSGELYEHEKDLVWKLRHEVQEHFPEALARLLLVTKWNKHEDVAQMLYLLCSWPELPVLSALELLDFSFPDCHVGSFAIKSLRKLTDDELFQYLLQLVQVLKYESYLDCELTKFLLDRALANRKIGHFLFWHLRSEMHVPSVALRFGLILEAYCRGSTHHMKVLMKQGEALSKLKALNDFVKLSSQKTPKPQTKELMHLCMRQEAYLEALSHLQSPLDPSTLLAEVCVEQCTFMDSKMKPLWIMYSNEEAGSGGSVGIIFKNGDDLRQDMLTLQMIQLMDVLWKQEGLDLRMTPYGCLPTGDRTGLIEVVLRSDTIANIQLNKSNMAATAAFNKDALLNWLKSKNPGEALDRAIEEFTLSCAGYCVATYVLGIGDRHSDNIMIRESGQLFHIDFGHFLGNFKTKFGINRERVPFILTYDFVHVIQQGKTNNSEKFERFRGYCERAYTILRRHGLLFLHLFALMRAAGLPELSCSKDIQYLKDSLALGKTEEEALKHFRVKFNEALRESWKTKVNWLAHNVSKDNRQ

Target: PI3Kδ (Homo sapiens (Human), UniProt O00329)
Assay: Biochemical inhibition of PI3K delta (ADP-Glo lipid kinase assay, Example 901)
Conditions: geometric mean of minimum three experiments unless footnoted

`CC(C)n1ncnc1-c1cn2c(n1)-c1ccc(OC(C(N)=O)C3CC3)cc1OCC2` (single isomer, unassigned) [549 (separated stereoisomer 1), reference compound] showed a Ki of 9.41 nM.

In the case of `CC(C)n1ncnc1-c1cn2c(n1)-c1ccc(OC(C(N)=O)C3CC3)cc1OCC2` (single isomer, unassigned) [549 (separated stereoisomer 2), reference compound], the Ki is reported as 1.7 nM.
